Binding of CDR-mutated scFvs to a peptide of the spike HR2 region

Target: peptide PDVDLGDISGINAS, taken from heptad repeat 2 (HR2) of SARS-CoV-2 spike.

Parent: Ab-14, a human scFv built as VH, the linker GGGGSGGGGSGGGGS, VL. Only the CDRs of the light chain vary.
VH: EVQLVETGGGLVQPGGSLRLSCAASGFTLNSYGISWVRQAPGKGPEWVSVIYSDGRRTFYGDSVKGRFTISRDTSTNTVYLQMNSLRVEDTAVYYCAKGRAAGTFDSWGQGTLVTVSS
VL: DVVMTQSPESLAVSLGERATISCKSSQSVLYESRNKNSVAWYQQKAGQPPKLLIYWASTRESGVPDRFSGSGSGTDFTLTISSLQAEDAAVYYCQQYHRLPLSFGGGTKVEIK

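The starting antibody came from a phage panning campaign against this peptide. Library AAYL50 holds single substitutions and randomly drawn double and triple substitutions in the CDRs. AlphaSeq pools MATa yeast showing the antibodies with MATalpha yeast showing the peptide. Binding brings cells together so that they mate, and sequencing counts the barcode pairs among the diploids. Scores were corrected for input abundance and mapped to Kd with protein pairs of known affinity run in the same pool. Mating was done three times.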

Variants are written as CDR1, CDR2 and CDR3 of the light chain (limits as in the source). Parent: KSSQSVLYESRNKNSVA, WASTRES, QQYHRLPLS. All variants listed here change A57 of the VL, counted from its first residue. Affinities are written as log10 Kd with Kd in nM; a lower number is a better binder. Replicates are averaged; those with no signal do not enter the mean. "ND" marks a missing value. The strain was present, yet no cells mated with the target were sequenced in that replicate, which points to weak or no binding. Entries are sorted by rising average, undetected variants last. For reference, the parent read 0.65 as the reference entry and 1.68 as a member of this library. Nonspecific signal, from three strains lacking the peptide, appeared in 18% of pairings of library AAYL50, centred on 4.19 (5% of these signals below 2.99); values are not corrected for it.

* KIRQSVLYESRNKNSVA | WGSTRES | QQYHRLPLS: 0.26, 0.53, 0.37 (mean 0.39)
* KSSQSVLYESRNKTSVA | NKSTRES | QQYHRLPLS: 0.72, 0.90, 0.70 (mean 0.77)
* KSSQSVLYERRNKNSEA | WGSTRES | QQYHRLPLS: 0.82, 1.37, 0.85 (mean 1.02)
* KSSQDVLYESRNKNSVA | WDSTRES | QQYHRLPLS: 1.33, 1.39, 1.40 (mean 1.37)
* KTSQSVLYESRNKNSVA | WMSTRES | QQYHRLPLS: 2.07, 1.81, 1.90 (mean 1.93)
* KSSQSVHYESRNKNSVA | WSSTRES | QQYWRLPLS: 2.34, 2.11, 1.81 (mean 2.09)
* KSSQYVLYESRNKNSVA | WQSTRES | QQKHRLPLS: 2.46, ND, 2.44 (mean 2.45)
* KSSQSVLYESRNKNSVA | WLSTRES | QQYHRLPLC: ND, 2.07, 3.20 (mean 2.64)
* KSSQSALYESRNKNSVA | WMSTRES | QQYHILPLS: 2.84, 2.40, 2.98 (mean 2.74)
* KSSQSVLYESRNKNSVA | WTSTRES | QQYHRLRLC: ND, 2.78, ND
* KSSQCVLYESRNKNSVA | WGSTRPS | QQYHRLPLS: 2.89, ND, ND
* KSSQSVLYESTNKNSVA | WYSTRES | QQYHRLPLS: ND, ND, 3.01
* KSSQEVLYESRNKNDVA | WVSTRES | QQYHRLPLS: ND, 3.52, 3.34 (mean 3.43)
* KSSQSVLYESCNKNSVA | WKSTREM | QQYHRLPLS: 3.67, 3.22, ND (mean 3.45)
* MSSQSVLYESRNKNSVA | WCSFRES | QQYHRLPLS: ND, 3.54, ND
* KSSQSVLYVSRNKNSVA | WKSTREW | QQYHRLPLS: ND, 3.57, ND
* KSSQSVLYESRNKYSVA | WDSTRES | QQYHRLPHS: 3.80, 3.35, 3.91 (mean 3.69)
* KSSQSVLYESRNKNSVA | WHSTRCS | QTYHRLPLS: 4.39, ND, ND
* KSSQSVLYESRNKESVA | WKLTRES | QQYHRLPLS: ND, ND, 4.50
* KSSQSVLYEHRNKNSVA | WCSTRES | QQYHRLPLS: 5.27, ND, 3.94 (mean 4.61)
* KSSSSVLYESRNKNSVV | WPSTRES | QQYHRLPLS: ND, ND, 4.63
* KPSQSVLYESRNKNSVA | WRSTRES | QWYHRLPLS: 5.46, ND, ND
* KSSQSVLYESRNKNSVA | WISTREN | TQYHRLPLS: ND, ND, 5.46
* KSSQSVLYESRLKNSVA | WLSTGES | QQYHRLPLS: ND, ND, ND
* KSSQSVLYESRNKNSVA | WYSTREM | QQYHRYPLS: ND, ND, ND
* KSSQSVLYESRNKNSVA | WPSTEDS | QQYHRLPLS: ND, ND, ND
* KSSQSVLYESRNKNSVA | WVSTRES | QMYHRLHLS: ND, ND, ND
* KESQSQLYESRNKNSVA | WNSTRES | QQYHRLPLS: ND, ND, ND
* KSSQSVLYESRNKNSVA | WDSTRES | QVYHRLCLS: ND, ND, ND
* PSSQSVLYESRNKNSVA | WWSTREV | QQYHRLPLS: ND, ND, ND
* KSSQSVQYESRNKNSVV | WRSTRES | QQYHRLPLS: ND, ND, ND
* KSSQSVLYESRNKNSVA | WCSTRES | QQYHRVWLS: ND, ND, ND
* KSSQSVLYESRNKNSVA | WQSTRES | QQYIMLPLS: ND, ND, ND
* KSSQSVLYESRNKNSVA | WLSTEES | NQYHRLPLS: ND, ND, ND
* KSSQSVLYESRNKNSVA | WPSGRES | QIYHRLPLS: ND, ND, ND
* KSSQSVLYESRNKNSVA | WKSTRTS | GQYHRLPLS: ND, ND, ND
* KSSQSVLYRSRNKNSVA | WCSTRES | QQYHRLPLC: ND, ND, ND
* KSSQSVLYESRMKNSVA | WMSTRES | IQYHRLPLS: ND, ND, ND
* KSSQWVLYESRNKNSVA | WNSTRRS | QQYHRLPLS: ND, ND, ND
* KSSQSVLYESRNKNSVA | WDSTRES | QNPHRLPLS: ND, ND, ND
* KSSQSVLYESRDKNSVA | WGSTRES | QQYHRLPLS: ND, ND, ND

Excerpt, the final 4 entries:

| CDR-L1 | CDR-L2 | CDR-L3 | log10 Kd, replicates | mean log10 Kd (nM) |
|---|---|---|---|---|
| KSSQSVLYESRMKNSVA | WMSTRES | IQYHRLPLS | ND, ND, ND | ND |
| KSSQWVLYESRNKNSVA | WNSTRRS | QQYHRLPLS | ND, ND, ND | ND |
| KSSQSVLYESRNKNSVA | WDSTRES | QNPHRLPLS | ND, ND, ND | ND |
| KSSQSVLYESRDKNSVA | WGSTRES | QQYHRLPLS | ND, ND, ND | ND |

Data: MIT Lincoln Laboratory AlphaSeq set, Engelhart et al. 2022, doi:10.1038/s41597-022-01779-4, as distributed in FLAb.